In patent US10792633B2, “Composition comprising a fluorine-containing surfactant” (HWK-Kronbichler GmbH, priority 2016, dated 2020):

Assays:
[1] = Determining the solubility in water; format: physicochemical; details: values not exact
Procedure: The suspension was added to the ultrasound bath for 5 minutes and was centrifuged for 20 minutes. The supernatant was then weighed and was rinsed with argon for 5 minutes to remove any possibly dissolved oxygen. […] The experiment was performed at approximately 23° C.

[2] = Solubility in organic solvents; format: physicochemical

For “1-methyl-2-((1H,1H,2H,2H-perfluorooctyl)thio)imidazoliumiodide [Synthesis Example 3]”, the “Solubility in water” value [1] was under 1 mg/mL, the “Solubility in 3M Novec 71 IPA” value ([2]; 3M™ Novec™ 71 IPA) was 9.6 mg/mL and the “Solubility in DMSO” value ([2]; DMSO) was 740 mg/mL. The “Solubility in MeOH” value ([2]; MeOH) was 1300 mg/mL.

In the case of “3-((3-octyl-1-(1H,1H,2H,2H-perfluorooctyl)imidazolium-2-yl)thio)propane-1-sulfonate [Synthesis Example 7]”, the “Solubility” value ([2]; Et2O) is reported as 0.5 mg/mL and the “Solubility” value ([2]; MeCN) is reported as 9.0 mg/mL.
